Earlier results on one compound are cited in patent US10314839B2, “Diversion-resistant opioid formulations” (priority 2014, dated 2019).

Each structure is given as a SMILES string.

Data set [1] has as its system opioid receptor.
Data set [2] relates to opioid receptor. This is another data set of the same source.

Consider `C=CCN1CC[C@]23c4c5ccc(O)c4O[C@H]2C(=O)CC[C@@]3(O)[C@H]1C5` [naloxone], for which the “Effect on morphine-like opioid agonists” value in data set [1] (0.4-0.8 mg intramuscularly or intravenously, in man) is “prevent or reverse the effects of morphine-like opioid agonists”. Further, the “Block of the effect of heroin” value in data set [1] (One mg intravenously vs 25 mg of heroin) was “completely block the effect of 25 mg of heroin”. Further, the “Opioid agonist effects / properties” value in data set [2] is reported as “almost devoid of agonist effects”.
